SMILES strings stand for the structures.

The experiment concerns IL-8, CXCR1 and CXCR2 mRNA in HCC827. The following applies: HCC827, gefitinib-treated.

`COc1cc2ncnc(Nc3ccc(F)c(Cl)c3)c2cc1OCCCN1CCOCC1` [Gefitinib]: the “CXCR1 and CXCR2 mRNA expression” value is on record as “not induced obviously”; the “IL-8 mRNA expression” value is given as “not induced obviously”.

These data come from patent publication US12226454B2, “Pharmaceutical compositions and use thereof for relieving anticancer drug resistance and enhancing sensitivity of anticancer drug” (Rise Biopharmaceuticals Inc., priority 2015, dated 2025).
